Assay results reported in ChEMBL document CHEMBL5137076, “SLL-627 Is a Highly Selective and Potent κ Opioid Receptor (KOR) Agonist with an Unexpected Nonreduction in Locomotor Activity” (2022).

Columns and labels:
[1] = target: T1, Delta-type opioid receptor (Rattus norvegicus, UniProt P33533); assay: Displacement of [3H]DPDPE from rat DOR expressed in CHO cell membranes incubated for 30 mins by liquid scintillation counting method
Mu-type opioid receptor [2] = target: T2, Mu-type opioid receptor (Rattus norvegicus, UniProt P33535); assay: Displacement of [3H]DAMGO from rat MOR expressed in CHO cell membranes incubated for 30 mins by liquid scintillation counting method
[3] = target: T3, Kappa-type opioid receptor (Homo sapiens, UniProt P41145); assay: Displacement of [3H]U69593 from human KOR expressed in CHO cell membranes incubated for 30 mins by liquid scintillation counting method
Mus musculus [4] = assay: Antinociceptive activity in ip dosed Kunming mouse assessed as reduction in nociceptive response after 4 hrs by hot plate test
[5] = target: T1, Delta-type opioid receptor; assay: Agonist activity at rat DOR expressed in CHO cell membranes after 1 hr by [35S]GTPgammaS binding assay
Mus musculus [6] = assay: Antinociceptive activity in ip dosed Kunming mouse assessed as reduction in nociceptive response after 4 hrs by abdominal constriction test
[7] = target: T3, Kappa-type opioid receptor; assay: Agonist activity at human KOR expressed in CHO cell membranes after 1 hr by [35S]GTPgammaS binding assay
Mu-type opioid receptor [8] = target: T2, Mu-type opioid receptor; assay: Agonist activity at rat MOR expressed in CHO cell membranes after 1 hr by [35S]GTPgammaS binding assay

Structure (SMILES) | Ki [1] | Ki (Mu-type opioid receptor [2]) | Ki [3] | ED50 (Mus musculus [4]) | ED90 (Mus musculus [4]) | EC50 [5] | ED50 (Mus musculus [6]) | EC50 [7] | EC50 (Mu-type opioid receptor [8])
COc1ccc2c3c1O[C@H]1[C@@]4(OC)CC[C@@]5(C[C@@]4(C)C(=O)c4ccc(C(C)C)cc4)[C@@H](C2)N(CC2CC2)CC[C@]315 | 65 nM | 731 nM | 32.9 nM |  |  |  |  |  | 
COc1ccc2c3c1O[C@H]1[C@@]4(OC)CC[C@@]5(C[C@@]4(C)[C@H](O)c4ccccc4)[C@@H](C2)N(CC2CC2)CC[C@]315 | > 5000 nM | 961 nM | 3.3 nM | 0.1 mg/kg | 1.7 mg/kg | 886 nM | 0.4 mg/kg | 0.015 nM | 553 nM
COc1ccc2c3c1O[C@H]1[C@@]4(OC)CC[C@@]5(C[C@@]4(C)C(=O)c4cc(C)cc(C)c4)[C@@H](C2)N(CC2CC2)CC[C@]315 | 259 nM | 99.4 nM | 79.8 nM |  |  |  |  |  | 
COc1ccc2c3c1O[C@H]1[C@@]4(OC)CC[C@@]5(C[C@@]4(C)C(=O)c4ccc(C)cc4)[C@@H](C2)N(CC2CC2)CC[C@]315 | > 10000 nM | 107 nM | 83 nM |  |  |  |  |  | 
COc1ccc2c3c1O[C@H]1[C@@]4(OC)CC[C@@]5(C[C@@]4(C)[C@H](O)c4ccc(Cl)c(Cl)c4)[C@@H](C2)N(CC2CC2)CC[C@]315 | 93.8 nM | 620 nM | 2410 nM |  |  |  |  |  | 
COc1ccc2c3c1O[C@H]1[C@@]4(OC)CC[C@@]5(C[C@@]4(C)C=O)[C@@H](C2)N(CC2CC2)CC[C@]315 | 1120 nM | 30.3 nM | 265 nM |  |  | 43.8 nM |  |  | 99.4 nM
COc1ccc2c3c1O[C@H]1[C@@]4(OC)CC[C@@]5(C[C@@]4(C)[C@H](O)c4ccc(C(C)C)cc4)[C@@H](C2)N(CC2CC2)CC[C@]315 | 38.4 nM | 54.3 nM | 175 nM |  |  |  |  |  | 
COc1ccc2c3c1O[C@H]1[C@@]4(OC)CC[C@@]5(C[C@@]4(C)C(=O)c4ccc6ccccc6c4)[C@@H](C2)N(CC2CC2)CC[C@]315 | 338 nM | 107 nM | 86.2 nM |  |  |  |  |  | 
COc1ccc2c3c1O[C@H]1[C@@]4(OC)CC[C@@]5(C[C@@]4(C)C(=O)c4ccccc4)[C@@H](C2)N(CC2CC2)CC[C@]315 | > 10000 nM | 236 nM | 40.4 nM |  |  |  |  | 287 nM | 1200 nM
COc1ccc2c3c1O[C@H]1[C@@]4(OC)CC[C@@]5(C[C@@]4(C)C(=O)c4ccc(-c6ccccc6)cc4)[C@@H](C2)N(CC2CC2)CC[C@]315 | > 10000 nM | 728 nM | 463 nM |  |  |  |  |  | 
COc1ccc(C(=O)[C@]2(C)C[C@@]34CC[C@]2(OC)[C@@H]2Oc5c(OC)ccc6c5[C@@]23CCN(CC2CC2)[C@@H]4C6)cc1 | 1180 nM | 78.4 nM | 147 nM |  |  |  |  |  | 
